# In US20250320214A1, “ORGANIC COMPOUNDS” (INTRA-CELLULAR THERAPIES, INC., priority 2022, published 2025):
# Where two headings read alike, the source gives them in different places.
# Key:
# [1] = target: SERT (Homo sapiens, UniProt P31645); experiment: Receptor binding, SERT; settings: for inhibition at 0.1 µM: at 100 nM
# [2] = target: 5-HT2A (Homo sapiens, UniProt P28223); experiment: Receptor binding, 5-HT2A; settings: for inhibition at 0.1 µM: read-out: 5-HT2A maximum inhibition; for 5-HT2A maximum inhibition: 0.1 µM
# [3] = target: D2 (Homo sapiens, UniProt P14416); experiment: Receptor binding, D2
# [4] = target: D1 (Homo sapiens, UniProt P21728); experiment: Receptor binding, D1; settings: for inhibition at 0.1 µM: read-out: D1 maximum inhibition
# [5] = target: Mu opioid receptor (Homo sapiens, UniProt P35372); experiment: Receptor binding, Mu opioid receptor; settings: for inhibition at 0.1 µM: at 100 nM, read-out: Mu maximum inhibition
# [6] = read-out: SERT maximum inhibition
# [7] = at 100 nM, read-out: D2 maximum inhibition
# [8] = at 200 nM, read-out: SERT maximum inhibition
# [9] = read-out: D2 maximum inhibition
# [10] = (footnote c), read-out: SERT maximum inhibition
SMILES,inhibition at 0.1 µM [2] [%],"inhibition at 0.1 µM [3, 7] [%]","inhibition at 0.2 µM [1, 8] [%]",Ki [2] [nM],inhibition at 0.1 µM ([4]; at 100 nM) [%],Ki [5] [nM],further results
"CCCCN1CC[C@H]2[C@@H](C1)c1cccc3c1N2CC(=O)N3 [Ex. 1, (6bR,10aS)-8-butyl-6b,7,8,9,10,10a-hexahydro-1H-pyrido[3′,4′:4,5]pyrrolo[1,2,3-de]quinoxalin-2(3H)-one]",< 0,15,,,,,"inhibition at 0.2 µM [1, 6]: < 0%"
"O=C1CN2c3c(cccc3[C@@H]3CN(CCCO)CC[C@@H]32)N1 [Ex. 2, (6bR,10aS)-8-(3-hydroxypropyl)-6b,7,8,9,10,10a-hexahydro-1H-pyrido[3′,4′:4,5]pyrrolo[1,2,3-de]quinoxalin-2(3H)-one]",8,,< 0,,,,
"O=C1CN2c3c(cccc3[C@@H]3CN(CCCOc4ccccc4)CC[C@@H]32)N1 [Ex. 3, (6bR,10aS)-8-(3-phenoxypropyl)-6b,7,8,9,10,10a-hexahydro-1H-pyrido[3′,4′:4,5]-pyrrolo[1,2,3-de]quinoxalin-2(3H)-one]",,,,2.84,,,"inhibition at 50 µM ([1]; at 50 μM (footnote a), read-out: SERT maximum inhibition): 8%; inhibition at 0.1 µM [3, 9]: 34%; inhibition at 0.1 µM [4]: 24%"
"O=C1CN2c3c(cccc3[C@@H]3CN(CCCC(=O)c4ccc(Cl)s4)CC[C@@H]32)N1 [Ex. 4, (6bR,10aS)-8-(4-(5-chlorothiophen-2-yl)-4-oxobutyl)-6b,7,8,9,10,10a-hexahydro-1H-pyrido[3′,4′:4,5]-pyrrolo[1,2,3-de]quinoxalin-2(3H)-one]",,41,,18.3,34,8.15,Ki [1]: 66 nM
"O=C1CN2c3c(cccc3[C@@H]3CN(CCCOc4ccc(O)cc4)CC[C@@H]32)N1 [Ex. 6, (6bR,10aS)-8-(3-(4-hydroxyphenoxy)propyl)-6b,7,8,9,10,10a-hexahydro-1H-pyrido[3′,4′:4,5]pyrrolo[1,2,3-de]quinoxalin-2(3H)-one]",77,,11,,0.86,,"inhibition at 0.1 µM [3, 9]: 41%"
"O=C1CN2c3c(cccc3[C@@H]3CN(CCCOc4ccc(OCc5ccccc5)cc4)CC[C@@H]32)N1 [Ex. 7, (6bR,10aS)-8-(3-(4-(benzyloxy)phenoxy)propyl)-6b,7,8,9,10,10a-hexahydro-1H-pyrido[3′,4′:4,5]-pyrrolo[1,2,3-de]quinoxalin-2(3H)-one]",76,,68,,,,"inhibition at 0.1 µM [3, 9]: 23%; inhibition at 0.1 µM [4]: 4.6%"
"NC(=O)c1cc(F)ccc1OCCCN1CC[C@H]2[C@@H](C1)c1cccc3c1N2CC(=O)N3 [Ex. 8, 5-fluoro-2-(3-((6bR,10aS)-2-oxo-2,3,6b,9,10,10a-hexahydro-1H-pyrido[3′,4′:4,5]pyrrolo[1,2,3-de]quinoxalin-8(7H)-yl)propoxy)benzamide]",14,,9.6,,0.78,,"inhibition at 100 µM ([3]; at 100 μM (footnote b), read-out: D2 maximum inhibition): < 0%"
"O=C1CN2c3c(cccc3[C@@H]3CN(CCCOc4ccc(F)c(F)c4)CC[C@@H]32)N1 [Ex. 9, (6bR,10aS)-8-(3-(3,4-difluorophenoxy)propyl)-6b,7,8,9,10,10a-hexahydro-1H-pyrido[3′,4′:4,5]pyrrolo-[1,2,3-de]quinoxalin-2(3H)-one]",,,,16.1,,1.83,"inhibition at 0.2 µM [1, 10]: 15%; inhibition at 0.1 µM [3, 9]: 7%; inhibition at 0.1 µM [4]: 15%"
"Cc1cc(F)cc(C)c1OCCCN1CC[C@H]2[C@@H](C1)c1cccc3c1N2CC(=O)N3 [Ex. 11, (6bR,10aS)-8-(3-(4-fluoro-2,6-dimethylphenoxy)propyl)-6b,7,8,9,10,10a-hexahydro-1H-pyrido[3′,4′:4,5]-pyrrolo[1,2,3-de]quinoxalin-2(3H)-one]",40,< 0,,,< 0,,"inhibition at 0.2 µM [1, 10]: 34%"
"O=C1Nc2cccc3c2N([C@H]2CCN(CCCOc4ccc(F)cc4)C[C@@H]32)C1(F)F [Ex. 13, (6bR,10aS)-1,1-difluoro-8-(3-(4-fluorophenoxy)propyl)-6b,7,8,9,10,10a-hexahydro-1H-pyrido[3′,4′:4,5]pyrrolo[1,2,3-de]quinoxalin-2(3H)-one]",,7,6,,24,,inhibition at 0.1 µM ([2]; at 100 nM): 21%; inhibition at 0.1 µM [5]: < 0%
"CC(=O)Nc1cccc2c1N[C@H]1CCN(CCCOc3ccc(F)cc3)C[C@@H]21 [Ex. 14, N-((4aS,9bR)-2-(3-(4-fluorophenoxy)propyl)-2,3,4,4a,5,9b-hexahydro-1H-pyrido[4,3-b]indol-6-yl)acetamide]",,11,4,,25,,inhibition at 0.1 µM ([2]; at 100 nM): 67%; inhibition at 0.1 µM [5]: 9%
"CC(=O)Nc1cccc2c1N[C@H]1CCN(CCCC(=O)c3ccc(F)cc3)C[C@@H]21 [Ex. 15, N-((4aS,9bR)-2-(4-(4-fluorophenyl)-4-oxobutyl)-2,3,4,4a,5,9b-hexahydro-1H-pyrido[4,3-b]indol-6-yl)acetamide]",,49,< 0,,45,,inhibition at 0.1 µM ([2]; at 100 nM): 80%; inhibition at 0.1 µM [5]: 11%
"CC(=O)Nc1cccc2c1N[C@H]1CCN(CCCC(O)c3ccc(F)cc3)C[C@@H]21 (stereo partly drawn) [Ex. 16, N-((4aS,9bR)-2-(4-(4-fluorophenyl)-4-hydroxybutyl)-2,3,4,4a,5,9b-hexahydro-1H-pyrido[4,3-b]indol-6-yl)acetamide]",,< 0,< 0,,< 0,,inhibition at 0.1 µM ([2]; at 100 nM): < 0%; inhibition at 0.1 µM [5]: < 0%
Cc1cc(F)ccc1OCCCN1CC[C@H]2[C@@H](C1)c1cccc3c1N2CC(=O)N3 [Ex. 18],,69,32,0.4,40,2.9,
O=C1CN2c3c(cccc3[C@@H]3CN(CCCOc4ccc(F)cc4Cl)CC[C@@H]32)N1 [Ex. 19],,80,23,0.6,33,3,
CCc1cc(F)ccc1OCCCN1CC[C@H]2[C@@H](C1)c1cccc3c1N2CC(=O)N3 [Ex. 20],,69,26,0.3,66,5.4,
Cc1cc(OCCCN2CC[C@H]3[C@@H](C2)c2cccc4c2N3CC(=O)N4)ccc1F [Ex. 21],,0,,,< 1,69,"inhibition at 0.1 µM [1, 6]: 14%; 5-HT2A maximum inhibition [2]: 77%"
O=C1CN2c3c(cccc3[C@@H]3CN(CCCOc4ccc(F)c(Cl)c4)CC[C@@H]32)N1 [Ex. 22],,0,,,0,74,"inhibition at 0.1 µM [1, 6]: 6%; 5-HT2A maximum inhibition [2]: 65%"
N#Cc1cc(OCCCN2CC[C@H]3[C@@H](C2)c2cccc4c2N3CC(=O)N4)ccc1F [Ex. 23],,0,,,0,65,"inhibition at 0.1 µM [1, 6]: 13%; 5-HT2A maximum inhibition [2]: 35%"
N#Cc1cc(F)ccc1OCCCN1CC[C@H]2[C@@H](C1)c1cccc3c1N2CC(=O)N3 [Ex. 25],,,,3.8,,8.4,Ki [1]: 35 nM; Ki [3]: 43 nM; Ki [4]: 74 nM
CN1C(=O)CN2c3c(cccc31)[C@@H]1CN(CCCOc3ccc(F)cc3C#N)CC[C@@H]12 [Ex. 26],,14,93,,93,,"inhibition at 0.1 µM ([2]; at 100 nM): 91%; Mu maximum inhibition ([5]; concentration not printed in this table (row head: Mu (Ki, nM))): 5%"
"O=C1CN2c3c(cccc3[C@@H]3CN(CCCOc4ccc(F)cc4)CC[C@@H]32)N1 [Fm. A, (6bR,10aS)-8-(3-(4-fluorophenoxy)propyl)-6b,7,8,9,10,10a-hexahydro-1H-pyrido[3′,4′:4,5]pyrrolo[1,2,3-de]quinoxalin-2(3H)-one, reference compound]",,,,,,,inhibition at 0.1 µM [4]: 44%
"O=C1CN2c3c(cccc3[C@@H]3CN(CCCS(=O)(=O)c4ccc(F)cc4)CC[C@@H]32)N1 [compound 12, (6bR,10aS)-8-(3-((4-fluorophenyl)sulfonyl)propyl)-6b,7,8,9,10,10a-hexahydro-1H-pyrido[3′,4′:4,5]pyrrolo-[1,2,3-de]quinoxalin-2(3H)-one]",33,,< 0,,,,inhibition at 0.1 µM [5]: < 0%
